Test results reported in patent publication US20130149757A1 (OPTINOL, INC., priority 2011, published 2013).

Columns and labels:
bacterial cells = conditions: traditional ABE fermentation; cited from earlier work
[1] = Liquid-liquid extraction with corn oil (Karr extractor); assay type: physicochemical
Method: Two runs were conducted, each with a different flow rate.

[2] = 16 g/L butanol starting concentration, 20% v/v corn oil

For n-butanol, the “level of butanol not exceeded before the fermentation broth becomes toxic to the organism” value (bacterial cells) is listed as about 16 g/L, the “% extraction, Run 1” value ([1]; flow rate feed 26 ml/min) is listed as 35.6% and the “% extraction, Run 2” value ([1]; flow rate feed 39 ml/min) is listed as 31.5%. The “extraction in this set up” value ([1]; summary comment) was “around 30%” and the “butanol removed from solution” value [2] was 34%.
